Reference: publication PMC6980832, “Crystal structures of Triosephosphate Isomerases from Taenia solium and Schistosoma mansoni provide insights for vaccine rationale and drug design against helminth parasites” (PLoS Neglected Tropical Diseases, 2020)

Substrate: O=CC(O)COP(=O)(O)O
Test: purified protein
Settings: 0.1 M TEA-HCl pH 7.4, 10 mM EDTA, 0.2 mM NADH, 21 °C, G3P 0 to 5 mM, G3P to DHAP direction

B1: HsTPI (Homo sapiens) (protein)
chain: APSRKFFVGGNWKMNGRKQSLGELIGTLNAAKVPADTEVVCAPPTAYIDFARQKLDPKIAVAAQNCYKVTNGAFTGEISPGMIKDCGATWVVLGHSERRHVFGESDELIGQKVAHALAEGLGVIACIGEKLDEREAGITEKVVFEQTKVIADNVKDWSKVVLAYEPVWAIGTGKTATPQQAQEVHEKLRGWLKSNVSDAVAQSTRIIYGGSVTGATCKELASQPDVDGFLVGGASLKPEFVDIINAKQ
  Km: 610 ± 20 µM
  kcat: 4010 s⁻¹
  kcat/Km: 6.54e+06 M⁻¹ s⁻¹
